One substance from patent US20250360143A1, “COMPOSITIONS AND METHODS FOR PHARMACOLOGIC TREATMENT OF STROKE AND MYOCARDIAL ISCHEMIA REPERFUSION INJURY” (priority 2022, published 2025) can be followed below.

This assay has as its target T1, hP2X4R (Homo sapiens, UniProt Q99571).
T1 construct: expressed in transfected cells; host or cells: HEK-293
T1 sequence (Q99571 1-388): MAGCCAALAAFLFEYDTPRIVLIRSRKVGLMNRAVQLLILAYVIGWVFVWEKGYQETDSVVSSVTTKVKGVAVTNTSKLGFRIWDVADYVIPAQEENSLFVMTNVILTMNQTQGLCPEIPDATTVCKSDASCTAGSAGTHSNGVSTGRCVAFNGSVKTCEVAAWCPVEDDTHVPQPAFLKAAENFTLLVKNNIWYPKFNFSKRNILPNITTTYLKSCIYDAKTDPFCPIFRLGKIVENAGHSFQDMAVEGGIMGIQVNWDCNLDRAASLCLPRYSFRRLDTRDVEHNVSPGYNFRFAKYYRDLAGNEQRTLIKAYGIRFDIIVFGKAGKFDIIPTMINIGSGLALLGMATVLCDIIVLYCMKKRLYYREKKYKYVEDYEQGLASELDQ
The format is cell-based.

Broadly, the IC50 is the point on the concentration scale where inhibition reaches its midpoint. Substance “2′,3′-O-Trinitrophenyl-adenosine-5′-triphosphate [TNP-ATP, reference compound]” returned an IC50 of 2770 nM.
